Reference: publication PMC10482975 (Nature Communications, 2023)

By UniProt entry, the sequences of proteins in these tests, tags left out.
UniProt P08172, whole entry: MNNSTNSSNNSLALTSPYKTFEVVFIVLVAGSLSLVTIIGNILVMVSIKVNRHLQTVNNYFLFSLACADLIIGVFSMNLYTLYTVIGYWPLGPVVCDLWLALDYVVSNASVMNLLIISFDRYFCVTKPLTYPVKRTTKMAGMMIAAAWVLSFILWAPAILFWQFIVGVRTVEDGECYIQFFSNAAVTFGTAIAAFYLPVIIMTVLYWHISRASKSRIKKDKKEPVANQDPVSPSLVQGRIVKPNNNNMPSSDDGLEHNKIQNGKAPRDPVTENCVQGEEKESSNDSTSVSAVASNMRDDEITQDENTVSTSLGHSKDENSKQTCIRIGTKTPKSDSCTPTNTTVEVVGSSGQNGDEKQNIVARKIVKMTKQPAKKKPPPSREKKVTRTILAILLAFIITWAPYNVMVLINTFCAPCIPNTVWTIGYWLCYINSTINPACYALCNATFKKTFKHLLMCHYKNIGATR

Target: M2 mAChR WT (Homo sapiens, UniProt P08172)
Test: [3H]-NMS radioligand dissociation binding, M2 mAChR WT

`CCCCCCOc1nsnc1C1=CCCN(C)C1` [xanomeline] showed a pIC50 of 4.58.

pIC50: −log10 of the molar value.
